Data on two molecules can be found in patent US20240058422A1, “GLUCAGON-LIKE PEPTIDE-1 RECEPTOR ANTAGONISTS” (INDIANA UNIVERSITY RESEARCH AND TECHNOLOGY CORPORATION, priority 2022, published 2024).

Protein sequences, listed by entry. Tags and fused reporters are not part of them. Lines headed by an entry give the natural chain unless they say otherwise; changes in a name come on top.
UniProt P43220: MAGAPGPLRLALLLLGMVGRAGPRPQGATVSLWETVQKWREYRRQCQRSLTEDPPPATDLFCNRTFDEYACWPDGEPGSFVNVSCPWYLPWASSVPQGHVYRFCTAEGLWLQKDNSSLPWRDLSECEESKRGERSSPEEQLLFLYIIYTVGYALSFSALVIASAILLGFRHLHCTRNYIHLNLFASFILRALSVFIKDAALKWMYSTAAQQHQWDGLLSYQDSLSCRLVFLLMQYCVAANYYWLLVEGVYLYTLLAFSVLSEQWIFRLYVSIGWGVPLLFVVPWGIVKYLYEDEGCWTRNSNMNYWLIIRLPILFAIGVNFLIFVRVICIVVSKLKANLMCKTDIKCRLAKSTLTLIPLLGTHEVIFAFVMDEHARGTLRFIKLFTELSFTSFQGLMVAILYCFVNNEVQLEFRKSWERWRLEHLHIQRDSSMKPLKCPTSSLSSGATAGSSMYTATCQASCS

In the assay the target is human GLP-1 receptor (human, UniProt P43220 24-463). The assay is described as follows: cell-based or functional assay.

Turning to DLWKQMEEEAVRLFIEWLKNGGPSSGAPPPSK (K40(C18 DiAcid); C-terminal amide (-NH2)) [Ex9-40amide, W11, K40 (C18 diacid)], the “IC50 (nM): block of cAMP induction by GLP-1 (0.05 nM), luciferase reporter in HEK 293 cells with human GLP-1 receptor” value worked out at 43 nM. Then DLWKQMEEEAVRLFIEWLKNGGPSSGAPPPSK (K40(mPeg-gE(C18 diacid)); C-terminal amide (-NH2)) [Ex9-40amide, W11, K40 (mPeg-γE-C18 diacid)], with 87 nM.
